Experimental data as given in US10442819B2, “Tricyclic compounds as inhibitors of mutant IDH enzymes” (Merck Sharp & Dohme Corp., priority 2014, dated 2019).

Sequences of proteins named here, by UniProt entry; tags and fusion partners are left off.
UniProt O75874, whole entry R132H: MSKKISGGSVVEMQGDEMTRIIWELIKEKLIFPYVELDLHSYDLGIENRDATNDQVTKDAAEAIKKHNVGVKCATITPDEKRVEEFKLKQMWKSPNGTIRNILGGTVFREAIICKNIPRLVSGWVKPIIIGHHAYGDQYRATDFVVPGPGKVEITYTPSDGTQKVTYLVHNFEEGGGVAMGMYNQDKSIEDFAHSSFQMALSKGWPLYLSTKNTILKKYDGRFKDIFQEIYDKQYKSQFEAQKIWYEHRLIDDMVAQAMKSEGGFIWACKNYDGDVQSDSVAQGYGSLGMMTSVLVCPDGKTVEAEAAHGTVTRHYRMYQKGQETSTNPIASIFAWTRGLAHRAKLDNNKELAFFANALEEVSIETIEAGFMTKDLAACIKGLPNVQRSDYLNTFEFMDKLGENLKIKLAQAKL

Target: R132H mutant IDH1 enzyme (Homo sapiens (Human), UniProt O75874, R132H)
Test: R132H IDH1 Enzymatic Assay
Format: biochemical
Conditions: R132H mutant IDH1 enzyme 1.5 nM final; luminescence readout; read-out: IC50

Structure (SMILES)	IC50 [nM]
CO[C@H]1CC[C@H](C(=O)N2Cc3cccnc3Nc3ccc(N4C5CCC4COC5)cc32)CC1 [Example 292, 6-[(trans-4-methoxycyclohexyl)carbonyl]-8-(3-oxa-8-azabicyclo[3.2.1]oct-8-yl)-6,11-dihydro-5H-pyrido[2,3-b][1,5]benzodiazepine]	678
CO[C@H]1CC[C@H](C(=O)N2Cc3cccnc3Nc3ccc(N4CCOC(C5CC5)C4)cc32)CC1 (stereo partly drawn) [Example 293, 8-(2-cyclopropylmorpholin-4-yl)-6-[(trans-4-methoxycyclohexyl)carbonyl]-6,11-dihydro-5H-pyrido[2,3-b][1,5]benzodiazepine]	589
CO[C@H]1CC[C@H](C(=O)N2Cc3cccnc3Nc3ccc(N4CCOC5(CC5)C4)cc32)CC1 [Example 294, 6-[(trans-4-methoxycyclohexyl)carbonyl]-8-(4-oxa-7-azaspiro[2.5]oct-7-yl)-6,11-dihydro-5H-pyrido[2,3-b][1,5]benzodiazepine]	846
CO[C@H]1CC[C@H](C(=O)N2Cc3cccnc3Nc3ccc(N4CCOCC4C4CC4)cc32)CC1 (stereo partly drawn) [Example 295, 8-(3-cyclopropylmorpholin-4-yl)-6-[(trans-4-methoxycyclohexyl)carbonyl]-6,11-dihydro-5H-pyrido[2,3-b][1,5]benzodiazepine]	428
CO[C@H]1CC[C@H](C(=O)N2Cc3cccnc3Nc3ccc(N4CC5CC4CO5)cc32)CC1 (stereo partly drawn) [Example 296, 6-[(trans-4-methoxycyclohexyl)carbonyl]-8-(2-oxa-5-azabicyclo[2.2.1]hept-5-yl)-6,11-dihydro-5H-pyrido[2,3-b][1,5]benzodiazepine]	698
COC1CCC(C(=O)N2Cc3cccnc3Nc3ccc(N4CCC(OC)C(F)C4)cc32)CC1 (stereo not shown) [Example 297, 8-(3-fluoro-4-methoxypiperidin-1-yl)-6-[(4-methoxycyclohexyl)carbonyl]-6,11-dihydro-5H-pyrido[2,3-b][1,5]benzodiazepine]	564
CC(C)O[C@H]1CC[C@H](C(=O)N2Cc3cccnc3Nc3ccc(N4CC5CC(C4)O5)cc32)CC1 [Example 298, 6-{[trans-4-(1-methylethoxy)cyclohexyl]car-bonyl}-8-(6-oxa-3-azabicyclo[3.1.1]hept-3-yl)-6,11-dihydro-5H-pyrido[2,3-b][1,5]benzodiazepine]	54
CCO[C@H]1CC[C@H](C(=O)N2Cc3cccnc3Nc3ccc(N4[C@@H]5CC[C@H]4C[C@@H](OC)C5)cc32)CC1 [Example 301, 6-[(trans-4-ethoxycyclohexyl)carbonyl]-8-[(3-endo)-3-methoxy-8-azabicyclo[3.2.1]oct-8-yl]-6,11-dihydro-5H-pyrido[2,3-b][1,5]benzodiazepine]	116
CO[C@H]1C[C@H]2CC[C@@H](C1)N2c1ccc2c(c1)N(C(=O)[C@H]1CC[C@H](OC(C)C)CC1)Cc1cccnc1N2 [Example 302, 8-[(3-endo)-3-methoxy-8-azabicyclo[3.2.1]oct-8-yl]-6-{[trans-4-(1-methylethoxy)cyclohexyl]car-bonyl}-6,11-dihydro-5H-pyrido[2,3-b][1,5]benzodiazepine]	46
O=C([C@H]1CC[C@H](NC2(C(F)(F)F)CC2)CC1)N1Cc2cccnc2Nc2ccc(N3C[C@H]4C[C@@H]3CO4)cc21 [Example 303, trans-4-({8-[(1R,4R)-2-oxa-5-azabicyclo[2.2.1]hept-5-yl]-5,11-dihydro-6H-pyrido[2,3-b][1,5]benzodiazepin-6-yl}carbonyl)-N-[1-(trifluoromethyl)cyclopropyl] cyclohexanamine]	37
O=C(C1CCN(CC(F)(F)F)CC1)N1Cc2cccnc2Nc2ccc(N3C[C@H]4CC[C@@H](C3)O4)cc21 [Example 304, 8-[(1R,5S)-8-oxa-3-azabicyclo[3.2.1]oct-3-yl]-6-{[1-(2,2,2-trifluoroethyl)piperidin-4-yl]carbonyl}-6,11-dihydro-5H-pyrido[2,3-b][1,5]benzodiazepine]	13
CCO[C@H]1CC[C@H](C(=O)N2Cc3cccnc3Nc3ccc(N4CC5CCC4CO5)cc32)CC1 (stereo partly drawn) [Example 305, 6-[(trans-4-ethoxycyclohexyl)carbonyl]-8-(2-oxa-5-azabicyclo[2.2.2]oct-5-yl)-6,11-dihydro-5H-pyrido[2,3-b][1,5]benzodiazepine]	77
O=C(C1CCN(CC(F)(F)F)CC1)N1Cc2cccnc2Nc2ccc(N3C[C@@H]4C[C@H]3CO4)cc21 [Example 306, 8-[(1S,4S)-2-oxa-5-azabicyclo[2.2.1]hept-5-yl]-6-{[1-(2,2,2-trifluoroethyl)piperidin-4-yl]carbonyl}-6,11-dihydro-5H-pyrido[2,3-b][1,5]benzodiazepine]	24
O=C(C1CCN(CC(F)(F)F)CC1)N1Cc2cccnc2Nc2ccc(N3C[C@H]4C[C@@H]3CO4)cc21 [Example 307, 8-[(1R,4R)-2-oxa-5-azabicyclo[2.2.1]hept-5-yl]-6-{[1-(2,2,2-trifluoroethyl)piperidin-4-yl]carbonyl}-6,11-dihydro-5H-pyrido[2,3-b][1,5]benzodiazepine]	16
CO[C@H]1COC2(CCN(c3ccc4c(c3)N(C(=O)[C@H]3CC[C@H](OC(C)C)CC3)Cc3cccnc3N4)CC2)C1 [Example 308, 8-[(3R)-3-methoxy-1-oxa-8-azaspiro[4.5]dec-8-yl]-6-{[trans-4-(1-methylethoxy)cyclohexyl]car-bonyl}-6,11-dihydro-5H-pyrido[2,3-b][1,5]benzodiazepine]	64
CC(C)O[C@H]1CC[C@H](C(=O)N2Cc3cccnc3Nc3ccc(N4CC5(CCOC5)C4)cc32)CC1 [Example 309, 6-{[trans-4-(1-methylethoxy)cyclohexyl]car-bonyl}-8-(6-oxa-2-azaspiro[3.4]oct-2-yl)-6,11-dihydro-5H-pyrido[2,3-b][1,5]benzodiazepine]	100
CC(C)(C)O[C@H]1CC[C@@H](C(=O)N2Cc3cccnc3Nc3ccc(N4CC5CCC(C4)O5)cc32)CC1 [Example 310, 6-[(cis-4-tert-butoxycyclohexyl)carbonyl]-8-(8-oxa-3-azabicyclo[3.2.1]oct-3-yl)-6,11-dihydro-5H-pyrido[2,3-b][1,5]benzodiazepine]	26
CCO[C@H]1CC[C@@H](C(=O)N2Cc3cccnc3Nc3ccc(N4C[C@@H]5C[C@H]4CO5)cc32)CC1 [Example 311, 6-[(cis-4-ethoxycyclohexyl)carbonyl]-8-[(1S,4S)-2-oxa-5-azabicyclo[2.2.1]hept-5-yl]-6,11-dihydro-5H-pyrido[2,3-b][1,5]benzodiazepine]	175
O=C([C@H]1CC[C@H](NC2(C(F)(F)F)CC2)CC1)N1Cc2cccnc2Nc2ccc(N3CC4CCC3CO4)cc21 (stereo partly drawn) [Example 312, trans-4-{[8-(2-oxa-5-azabicyclo[2.2.2]oct-5-yl)-5,11-dihydro-6H-pyrido[2,3-b][1,5]benzodiazepin-6-yl]carbonyl}-N-[1-(trifluoromethyl)cyclopropyl] cyclohexanamine]	30
CCCO[C@H]1CC[C@H](C(=O)N2Cc3cccnc3Nc3ccc(N4CC5CCC(C4)O5)cc32)CC1 [Example 313, 8-[8-oxa-3-azabicyclo[3.2.1]oct-3-yl]-6-[(trans-4-propoxycyclohexyl)carbonyl]-6,11-dihydro-5H-pyrido[2,3-b][1,5]benzodiazepine]	43
CCCO[C@H]1CC[C@H](C(=O)N2Cc3cccnc3Nc3ccc(N4[C@@H]5CC[C@H]4C[C@@H](OC)C5)cc32)CC1 [Example 314, 8-[(3-endo)-3-methoxy-8-azabicyclo[3.2.1]oct-8-yl]-6-[(trans-4-propoxycyclohexyl)carbonyl]-6,11-dihydro-5H-pyrido[2,3-b][1,5]benzodiazepine]	95
CCCO[C@H]1CC[C@H](C(=O)N2Cc3cccnc3Nc3ccc(N4C[C@H]5CC[C@@H]4CO5)cc32)CC1 [Example 315, 8-[(1R,4R)-2-oxa-5-azabicyclo[2.2.2]oct-5-yl]-6-[(trans-4-propoxycyclohexyl)carbonyl]-6,11-dihydro-5H-pyrido[2,3-b][1,5]benzodiazepine]	79
CCCO[C@H]1CC[C@@H](C(=O)N2Cc3cccnc3Nc3ccc(N4C[C@@H]5C[C@H]4CO5)cc32)CC1 [Example 316, 8-[(1S,4S)-2-oxa-5-azabicyclo[2.2.1]hept-5-yl]-6-[(cis-4-propoxycyclohexyl)carbonyl]-6,11-dihydro-5H-pyrido[2,3-b][1,5]benzodiazepine]	88
CC(C)O[C@H]1CC[C@H](C(=O)N2Cc3cccnc3Nc3ccc(N4CC5COCC(C4)O5)cc32)CC1 [Example 317, 8-(3,9-dioxa-7-azabicyclo[3.3.1]non-7-yl)-6-{[trans-4-(1-methylethoxy)cyclohexyl]car-bonyl}-6,11-dihydro-5H-pyrido[2,3-b][1,5]benzodiazepine]	39
CC(C)O[C@H]1CC[C@H](C(=O)N2Cc3cccnc3Nc3ccc(N4CC5(CCCOC5)C4)cc32)CC1 [Example 318, 6-{[trans-4-(1-methylethoxy)cyclohexyl]car-bonyl}-8-(6-oxa-2-azaspiro[3.5]non-2-yl)-6,11-dihydro-5H-pyrido[2,3-b][1,5]benzodiazepine]	43
CC(C)O[C@H]1CC[C@H](C(=O)N2Cc3cccnc3Nc3ccc(N4C5CO[C@H]6[C@@H]5OC[C@H]64)cc32)CC1 [Example 319, 8-[(3R,3aR,6S,6aR)-hexahydro-3,6-epiminofuro[3,2-b]furan-7-yl]-6-{[trans-4-(1-methylethoxy)cyclohexyl]car-bonyl}-6,11-dihydro-5H-pyrido[2,3-b][1,5]benzodiazepine]	18
O=C(C1CCN(CC(F)(F)F)CC1)N1Cc2cccnc2Nc2ccc(N3CC4CCC3CO4)cc21 (stereo not shown) [Example 320, 8-(2-oxa-5-azabicyclo[2.2.2]oct-5-yl)-6-{[1-(2,2,2-trifluoroethyl)piperidin-4-yl]carbonyl}-6,11-dihydro-5H-pyrido[2,3-b][1,5]benzodiazepine]	9
O=C(C1CCN(CC(F)(F)F)CC1)N1Cc2cccnc2Nc2ccc(N3CC4CCC3CO4)cc21 (stereo not shown) [Example 321, 8-(2-oxa-5-azabicyclo[2.2.2]oct-5-yl)-6-{[1-(2,2,2-trifluoroethyl)piperidin-4-yl]carbonyl}-6,11-dihydro-5H-pyrido[2,3-b][1,5]benzodiazepine]	35
